Tests used:
[1] = molecular target: Myeloid Cell Leukemia 1 (Mcl-1) (Homo sapiens, UniProt Q07820); test: Terbium labeled Mcl-1 HTRF binding assay (displacement of Cy5-labeled BIM BH3 peptide); settings: read-out: Tb-MCL1 Ki, 25 pM Tb-Mcl-1, 8 nM Cy5 Bim peptide, Ki=IC50/(1+[L]/Kd), [L]=8 nM, Kd=10 nM, 60 min at room temperature
Method: Terbium labeled Myeloid Cell Leukemia 1 (Mcl-1) homogeneous time-resolved fluorescence (HTRF) binding assay utilizing the BIM BH3 peptide (H2N—(C/Cy5Mal) WIAQELRRIGDEFN-OH) as the binding partner for Mcl-1.
This assay evaluated inhibition of the BH3 domain: Mcl-1 interaction by measuring the displacement of Cy5-labeled BIM BH3 peptide (H2N—(C/Cy5Mal) WIAQELRRIGDEFN-OH) in the HTRF assay format.
The following assay and stock buffers were prepared for use in the assay: (a) Stock buffer: 10 mM Tris-HCl, pH=7.5+150 mM NaCl, filtered, sterilized, and stored at 4° C.; and (b) 1× assay buffer, where the following ingredients were added fresh to stock buffer: 2 mM dithiothreitol (DTT), 0.0025% Tween-20, 0.1 mg/mL bovine serum albumin (BSA). The 1×Tb-Mcl-1+Cy5 Bim peptide solution was prepared by diluting the protein stock solution using the 1×assay buffer (b) to 25 pM Tb-Mcl-1 and 8 nM Cy5 Bim peptide.
Using the Acoustic ECHO, 100 nL of 100×test compound(s) were dispensed into individual wells of a white 384-well Perkin Elmer Proxiplate, for a final compound concentration of 1×and final DMSO concentration of 1%. Inhibitor control and neutral control (NC, 100 nL of 100% DMSO) were stamped into columns 23 and 24 of assay plate, respectively. Into each well of the plate was then dispensed 10 μL of the 1× Tb-Mcl-1+Cy5 Bim peptide solution. The plate was centrifuged with a cover plate at 1000 rpm for 1 minute, then incubated for 60 minutes at room temperature with plates covered. The TR-FRET signal was read on an BMG PHERAStar FSX MicroPlate Reader at room temperature using the HTRF optic module (HTRF: excitation: 337 nm, light source: laser, emission A: 665 nm, emission B: 620 nm, integration start: 60 μs, integration time: 400 μs).
The BMG PHERAStar FSX MicroPlate Reader was used to measure fluorescence intensity at two emission wavelengths—665 nm and 620 nm—and report relative fluorescence units (RFU) for both emissions, as well as a ratio of the emissions (665 nm/620 nm)*10,000. The RFU values were normalized to percent inhibition as follows: […]

Protein sequences, listed by entry. Tags and fused reporters are not part of them.
UniProt Q07820, whole entry: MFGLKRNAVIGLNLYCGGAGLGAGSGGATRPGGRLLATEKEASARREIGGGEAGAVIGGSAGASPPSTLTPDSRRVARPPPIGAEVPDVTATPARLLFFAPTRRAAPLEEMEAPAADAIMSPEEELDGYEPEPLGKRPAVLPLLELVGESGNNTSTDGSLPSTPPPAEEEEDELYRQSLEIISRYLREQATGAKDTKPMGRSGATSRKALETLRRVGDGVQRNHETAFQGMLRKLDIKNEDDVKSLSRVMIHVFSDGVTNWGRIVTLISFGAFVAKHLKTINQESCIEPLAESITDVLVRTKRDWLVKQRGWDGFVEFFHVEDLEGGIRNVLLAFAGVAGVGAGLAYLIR

[2] = test system: MOLP-8 human multiple myeloma cell line; test: Caspase-Glo 3/7 apoptosis induction assay in MOLP-8 cells; settings: read-out: MOLP8 Caspase-Glo AC50, 2 hours at 37° C., caspase-3/7 luminescence, averaged over all runs on all batches
From the text: MCL-1 is a regulator of apoptosis and is highly over-expressed in tumor cells that escape cell death. The assay evaluates the cellular potency of small-molecule compounds targeting regulators of the apoptosis pathway, primarily MCL-1, Bfl-1, Bcl-2, and other proteins of the Bcl-2 family. Protein-protein inhibitors disrupting the interaction of anti-apoptotic regulators with BH3-domain proteins initiate apoptosis.
The Caspase-Glo® 3/7 Assay is a luminescent assay that measures caspase-3 and -7 activities in purified enzyme preparations or cultures of adherent or suspension cells. The assay provides a proluminescent caspase-3/7 substrate, which contains the tetrapeptide sequence DEVD. This substrate is cleaved to release aminoluciferin, a substrate of luciferase used in the production of light. Addition of the single Caspase-Glo® 3/7 Reagent in an “add-mix-measure” format results in cell lysis, followed by caspase cleavage of the substrate and generation of a “glow-type” luminescent signal. This assay uses the MOLP-8 human multiple myeloma cell line, which is sensitive to MCL-1 inhibition.
• Perkin Elmer Envision • Multidrop 384 and small volume dispensing cassettes • Centrifuge • Countess automated cell counter • Countess counting chamber slides • Assay plate: ProxiPlate-384 Plus, White 384-shallow well Microplate • Sealing tape: Topseal A plus • T175 culture flask
Cell cultures were maintained between 0.2 and 2.0×10^6 cells/mL. The cells were harvested by collection in 50 mL conical tubes. The cells were then pelleted at 500 g for 5 mins before removing supernatant and resuspension in fresh pre-warmed culture medium. The cells were counted and diluted as needed.
The assay reagent was prepared by transferring the buffer solution to the substrate vial and mixing. […]
Compounds were delivered in assay-ready plates (Proxiplate) and stored at −20° C. […] The plates were then sealed and measured after 30 minutes.
The activity of a test compound was calculated as percent change in apoptosis induction as follows: […]

Cc1c2c(nn1C)C(CCN1CCOCC1)OCc1cc(n(C)n1)CSc1cc(c3ccccc3c1)OCCCc1c(C(=O)O)n(C)c3c-2c(Cl)ccc13 (stereo not drawn)
Ki [1]: 0.241 nM | AC50 [2]: 2160 nM

Cc1c2c(nn1C)COCc1cc(n(C)n1)CCc1cc(c3ccc(F)cc3c1)OCCCc1c(C(=O)O)n(C)c3c-2c(Cl)ccc13 [Compound 4]
Ki [1]: 2.71 nM | AC50 [2]: 1980 nM

Cc1c2c(nn1C)COCc1cc(n(C)n1)CCc1cc(c3ccc(F)cc3c1)OCCCc1c(C(=O)O)n(C)c3c-2c(Cl)ccc13 [Compound 3]
Ki [1]: 0.02 nM | AC50 [2]: 13.5 nM
